Laboratory results published in publication PMC4601051, “Discovery of Indoline-2-carboxamide Derivatives as a New Class of Brain-Penetrant Inhibitors of Trypanosoma brucei” (Journal of Medicinal Chemistry, 2015).

Test system: T. b. brucei GVR35
Conditions: 12.5 mg/kg IP b.i.d. for 5 d from 21 d post infection, female NMRI mice, n = 5
Description: For stage 2 of infection, the standard model is T. b. brucei GVR35 in which CNS infection is allowed to develop in female NMRI mice before treatment starts, requiring about 21 d.
These were carried out as previously described[27],[32] at the dose level presented and using the same dose formulation as the pharmacokinetic studies. HRN mice were used under the same infection and monitoring protocol as described for female NMRI mice.

In the case of `CNC(=O)[C@H]1Cc2ccccc2N1C(=O)Cc1ccc(F)cc1` [Compound 47, (R)-1-(2-(4-Fluorophenyl)acetyl)-N-methylindoline-2-carboxamide], the “cure (survival with no parasitaemia at 180 d post infection)” value is reported as “one mouse was cured”.
